Experimental data published in ChEMBL document CHEMBL3098003, “Structure-based design of 2-aminopyridine oxazolidinones as potent and selective tankyrase inhibitors” (ACS Med Chem Lett, 2013).

What was measured:
[1] = molecular target: T1, Poly [ADP-ribose] polymerase tankyrase-1 (Homo sapiens, UniProt O95271); assay: Inhibition of recombinant 6XHis-tagged TNKS1 (1091 to 1325) (unknown origin) after 60 mins by spectrophotometric analysis
T1 sequence (O95271 whole entry): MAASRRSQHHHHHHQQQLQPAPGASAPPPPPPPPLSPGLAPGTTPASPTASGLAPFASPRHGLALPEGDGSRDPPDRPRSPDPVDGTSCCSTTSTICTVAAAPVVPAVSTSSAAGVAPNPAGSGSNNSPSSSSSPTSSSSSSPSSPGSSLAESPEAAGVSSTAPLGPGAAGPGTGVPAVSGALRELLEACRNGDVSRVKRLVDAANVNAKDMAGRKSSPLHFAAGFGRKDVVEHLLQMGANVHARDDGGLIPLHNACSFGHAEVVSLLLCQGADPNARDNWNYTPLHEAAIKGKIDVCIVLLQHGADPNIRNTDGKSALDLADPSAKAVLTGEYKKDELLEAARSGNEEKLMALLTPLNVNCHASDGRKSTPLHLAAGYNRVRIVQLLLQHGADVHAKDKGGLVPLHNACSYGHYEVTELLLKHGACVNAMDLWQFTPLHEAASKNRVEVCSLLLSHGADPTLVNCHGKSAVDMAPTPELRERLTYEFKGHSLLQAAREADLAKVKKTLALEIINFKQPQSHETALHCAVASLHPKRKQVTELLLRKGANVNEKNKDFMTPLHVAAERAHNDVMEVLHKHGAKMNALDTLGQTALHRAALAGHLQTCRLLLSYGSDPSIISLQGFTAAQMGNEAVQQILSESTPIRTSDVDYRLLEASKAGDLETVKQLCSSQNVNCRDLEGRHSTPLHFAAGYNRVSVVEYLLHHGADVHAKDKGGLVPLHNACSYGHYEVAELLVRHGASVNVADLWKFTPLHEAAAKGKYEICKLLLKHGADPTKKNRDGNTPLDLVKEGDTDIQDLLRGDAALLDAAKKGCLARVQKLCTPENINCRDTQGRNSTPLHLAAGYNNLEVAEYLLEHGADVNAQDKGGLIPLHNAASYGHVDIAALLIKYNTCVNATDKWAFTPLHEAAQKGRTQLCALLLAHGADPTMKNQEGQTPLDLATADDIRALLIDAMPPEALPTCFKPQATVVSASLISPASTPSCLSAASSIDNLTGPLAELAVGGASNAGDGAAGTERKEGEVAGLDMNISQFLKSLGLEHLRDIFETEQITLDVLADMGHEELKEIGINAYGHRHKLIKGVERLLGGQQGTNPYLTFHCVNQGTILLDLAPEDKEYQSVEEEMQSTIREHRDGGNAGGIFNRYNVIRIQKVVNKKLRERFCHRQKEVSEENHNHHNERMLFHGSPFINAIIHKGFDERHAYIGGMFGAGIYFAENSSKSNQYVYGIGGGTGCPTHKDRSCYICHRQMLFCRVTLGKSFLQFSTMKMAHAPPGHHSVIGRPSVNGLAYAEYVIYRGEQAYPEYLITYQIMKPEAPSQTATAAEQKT

Tankyrase 1/2 [2] = molecular target: T2, Tankyrase 1/2 (Homo sapiens, UniProt Q9H2K2+O95271); assay: Inhibition of tankyrase in human DLD1 cells assessed as inhibition of Wnt gene transcription after 40 to 48 hrs by STF assay; format: cell-based; settings: dld-1
T2 sequence (Q9H2K2 whole entry): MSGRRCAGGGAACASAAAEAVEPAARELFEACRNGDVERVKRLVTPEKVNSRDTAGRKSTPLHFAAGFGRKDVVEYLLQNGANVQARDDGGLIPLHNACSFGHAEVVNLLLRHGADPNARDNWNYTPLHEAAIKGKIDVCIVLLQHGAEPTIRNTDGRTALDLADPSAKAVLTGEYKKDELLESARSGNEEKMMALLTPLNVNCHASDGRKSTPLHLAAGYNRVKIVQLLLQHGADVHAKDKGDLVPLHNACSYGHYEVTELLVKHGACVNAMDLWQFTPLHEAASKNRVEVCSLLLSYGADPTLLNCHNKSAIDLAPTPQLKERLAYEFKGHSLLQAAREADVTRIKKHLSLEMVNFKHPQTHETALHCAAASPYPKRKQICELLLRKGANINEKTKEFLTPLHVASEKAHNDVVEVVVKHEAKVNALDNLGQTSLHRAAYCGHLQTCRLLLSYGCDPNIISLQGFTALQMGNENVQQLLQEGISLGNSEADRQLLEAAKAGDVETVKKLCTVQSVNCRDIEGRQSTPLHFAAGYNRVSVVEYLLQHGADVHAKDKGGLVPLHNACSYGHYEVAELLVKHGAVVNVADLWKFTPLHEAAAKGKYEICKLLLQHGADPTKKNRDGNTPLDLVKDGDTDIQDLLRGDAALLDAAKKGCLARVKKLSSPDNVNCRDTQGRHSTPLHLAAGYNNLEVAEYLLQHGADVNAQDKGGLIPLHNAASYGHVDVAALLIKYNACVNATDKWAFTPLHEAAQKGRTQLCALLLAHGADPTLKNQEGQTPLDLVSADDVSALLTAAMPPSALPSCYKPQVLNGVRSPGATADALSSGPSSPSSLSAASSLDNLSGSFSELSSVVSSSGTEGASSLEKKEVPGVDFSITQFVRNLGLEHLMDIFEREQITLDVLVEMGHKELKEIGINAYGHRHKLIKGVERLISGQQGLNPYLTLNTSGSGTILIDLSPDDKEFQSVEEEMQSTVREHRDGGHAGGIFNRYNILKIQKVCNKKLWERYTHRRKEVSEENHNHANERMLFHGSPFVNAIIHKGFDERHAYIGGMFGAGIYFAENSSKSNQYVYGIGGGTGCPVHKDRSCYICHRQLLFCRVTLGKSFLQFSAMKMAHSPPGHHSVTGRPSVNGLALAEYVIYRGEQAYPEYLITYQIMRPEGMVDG
T2 sequence (O95271 whole entry): T1 sequence (O95271 whole entry)

Tankyrase 1/2 [3] = molecular target: T2, Tankyrase 1/2; assay: Inhibition of tankyrase in human SW480 cells assessed as axin2 accumulation after 24 hrs by Hoechst dye-based assay; format: cell-based
Tankyrase 1/2 [4] = molecular target: T2, Tankyrase 1/2; assay: Inhibition of tankyrase in human SW480 cells assessed as degradation of total beta-catenin after 40 to 48 hrs; format: cell-based

Structure (SMILES) | pIC50 [1] | IC50 (Tankyrase 1/2 [2]) | EC50 (Tankyrase 1/2 [3]) | IC50 (Tankyrase 1/2 [4])
CC1(C)OC(=O)N([C@H]2CC[C@H](c3cnc(N)c(-c4ncccn4)c3)CC2)[C@H]1c1ccccc1 | 8.70 | 0.012 µM | 0.052 µM | 0.091 µM
CC1(C)OC(=O)N([C@H]2CC[C@@H](c3cnc(N)c(-c4ncccn4)c3)CC2)[C@H]1c1ccccc1 | – | – | 5.81 µM | 6.55 µM

pIC50: −log10 of the molar value.
